# Measured affinities in a library of Ab-95 light chain variants

The measurements come from Engelhart et al. 2022 (doi:10.1038/s41597-022-01779-4) through the FLAb antibody collection.

Antigen: PDVDLGDISGINAS, a 14-residue peptide of the SARS-CoV-2 spike HR2 region.

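The parent was found by panning a naive human phage display library on the peptide. Library AAYL52 holds single substitutions and randomly drawn double and triple substitutions in the CDRs. The assay is AlphaSeq: two haploid yeast populations carry antibody and antigen on their surface. The frequency of each diploid, read from paired DNA barcodes, reflects how well the two displayed proteins bind. Read counts were normalised to the haploid input and turned into Kd by a linear fit to BCL2-family pairs of known affinity, for each replicate. Mating was done three times.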

Parent scFv Ab-95: VH joined to VL by the linker GGGGSGGGGSGGGGS. Changes lie in the light chain CDRs alone.
VH: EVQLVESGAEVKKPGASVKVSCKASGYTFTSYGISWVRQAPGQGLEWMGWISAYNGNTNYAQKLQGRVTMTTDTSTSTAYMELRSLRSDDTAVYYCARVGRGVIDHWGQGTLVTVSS
VL: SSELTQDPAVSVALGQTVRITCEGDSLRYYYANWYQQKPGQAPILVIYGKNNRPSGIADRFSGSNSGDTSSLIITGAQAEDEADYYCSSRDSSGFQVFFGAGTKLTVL

The parent's light chain CDRs are EGDSLRYYYAN, GKNNRPS, SSRDSSGFQVF; each variant's own CDRs replace them letter for letter. Affinities are written as log10 Kd with Kd in nM; a lower number is a better binder. A pair that was not seen in that replicate is written "n.d."; this usually means weak binding, but a binder can also be missed. Three control strains display no target. For library AAYL52, 28% of the pairings with them gave a signal, with a median of 3.91 and one signal in twenty below 2.90, so weak values seen in few replicates may be background. The control count says in how many pairings with the empty strains this scFv gave a signal, with their mean in brackets.

CDR-L1,CDR-L2,CDR-L3,"replicates, log10 nM",control signals
WPDSLRYYYAN,GKNNRPS,SSRDSSGQQVF,4.55 / n.d. / n.d.,2/9 (3.48)
EGDSLRYYYAN,GKNNRPS,SSRWSSGAQVW,2.68 / 2.08 / 3.35,0/9
EGDSLRYYYAV,GKNNRPS,QSADSSGFQVF,3.58 / n.d. / n.d.,1/9 (4.72)
EGDSLRYYYAN,FKNNRPS,SYRDSHGFQVF,n.d. / n.d. / n.d.,0/9
EWDSLRYYYAN,GDNNRPS,MSRDSSGFQVF,2.62 / 2.31 / 2.58,2/9 (3.80)
EGDYLRYYYAN,GKNNRGS,PSRDSSGFQVF,3.66 / 3.36 / n.d.,3/9 (4.23)
EADSLRYYGAN,GKNNRPS,SSRSSSGFQVF,2.27 / 1.87 / 1.86,5/9 (3.96)
EGDSLRYYGAN,GKNKRPS,SSRDSSGYQVF,3.10 / 2.47 / 2.49,0/9
EGDSLRYYQAN,GKNNRPS,SSRDYMGFQVF,1.43 / 1.24 / 0.82,1/9 (3.54)
EGDSLRYYYAN,GKNNRVS,SSRDSNGFQVT,3.40 / n.d. / 3.55,0/9
EGDNLRYYYAN,GKNNRPH,SSRDSSGFGVF,3.50 / n.d. / n.d.,0/9
EGDSVRYYMAS,GKNNRPS,SSRDSSGFQVF,2.19 / 2.12 / 2.47,7/9 (3.99)
EGDSWRYYYAN,GKRNRPS,WSRDSSGFQVF,4.22 / 4.21 / n.d.,3/9 (3.75)
EGTSLRKYYAN,GKNNRPS,SSRDSSPFQVF,4.05 / 2.27 / 3.17,4/9 (3.82)
EGTSLRYYYAN,GINNRPS,SSRDSSGFQDF,3.34 / 3.78 / n.d.,2/9 (4.07)
EGDSLHYYYAN,GKNNGPS,SSRDWSGFQVF,3.49 / 3.01 / 3.44,2/9 (4.69)
EGDSLRYYYAN,GKNNEMS,SSRDSSGFQVF,4.48 / 3.34 / 2.91,3/9 (3.87)
EGDSLRYYYWN,GKTNRPS,SSRDSSGFQVF,3.54 / n.d. / n.d.,0/9
EADSLAYYYAN,YKNNRPS,SSRDSSGFQVF,n.d. / n.d. / n.d.,1/9 (4.80)
EGDSLRYYYAN,GKNNRPS,SSTDWSTFQVF,3.07 / 3.41 / 2.97,1/9 (3.51)
EGDKLRYYYAN,GKNNRPS,SFRDSSGFQVA,5.09 / n.d. / n.d.,6/9 (4.16)
NGDSLRKYYAN,GKNNRPS,SSPDSSGFQVF,3.68 / 3.47 / n.d.,3/9 (3.79)
EGTSLRYYYAN,DKNNRPS,SSRDSSGAQVF,2.19 / 2.62 / 2.62,0/9
EGDSLKYYYTN,GKNNRPS,SSRDSSCFQVF,2.36 / 2.23 / 4.06,2/9 (4.08)
ESDSLRYYYAN,GKNNRPS,SSCDSSGFQVA,n.d. / 2.49 / 3.25,1/9 (3.39)
PGDSLTYYYAN,GKNNRPS,YSRDSSGFQVF,n.d. / n.d. / n.d.,2/9 (4.69)
YGDSLRYYYAN,GKNNTPS,SSRDSSGFSVF,3.44 / 3.80 / 3.81,5/9 (4.20)
EGDALRYEYKN,GKNNRPS,SSRDSSGFQVF,2.84 / 2.35 / 2.39,3/9 (4.14)
EGDSLRYYYAK,GKNNRPS,SSRDSSGFCVP,n.d. / n.d. / n.d.,1/9 (3.16)
CGDSLRYYYAH,GKNNRPS,SSRDSKGFQVF,n.d. / n.d. / 3.58,1/9 (4.62)
EGDSLHYYYAN,GKENRPS,SSRDYSGFQVF,3.87 / 2.66 / 3.07,1/9 (3.37)
EGDSLRYYYAN,GKNNRPS,SSIDSSGFQCK,3.00 / 2.56 / 1.69,5/9 (3.36)
EGDSLRYYYAN,GKNNRPS,SSRDSAQFQVC,2.56 / 2.40 / n.d.,2/9 (3.83)
EGDLQRYYYAN,GKNNIPS,SSRDSSGFQVF,4.70 / 4.83 / 4.40,3/9 (4.36)
PGDSLRYYYAN,GKNNRPS,SSQDSSGFQCF,n.d. / n.d. / n.d.,2/9 (5.13)
EGGSLRYYYAN,GKNNRPS,SSRDSSVHQVF,2.77 / 2.67 / 2.76,1/9 (3.76)
EGVSLRYYYFN,GKNNRPS,SSRDSSGFQVF,3.21 / n.d. / n.d.,6/9 (4.01)
EGDTLRYYYAN,GKNNRPS,SSMDSSGTQVF,n.d. / n.d. / n.d.,0/9
EGDSLRYLYAN,GKSNRPS,SSLDSSGFQVF,n.d. / 5.35 / 3.58,3/9 (3.27)
EGPSLRYYYAN,GKNNRPS,SSRDSCGFQVF,3.42 / n.d. / n.d.,1/9 (3.04)
EGDSLRYYYAN,GKNNPPS,SSWDSSGFQVF,3.22 / 3.67 / n.d.,1/9 (3.01)
EGDSLIYYYAN,SKNNRPS,SVRDSSGFQVF,4.62 / n.d. / 3.74,3/9 (3.87)
EGDSLRYYLAN,GKCNKPS,SSRDSSGFQVF,4.55 / 5.17 / 3.99,1/9 (3.99)
SGSSLRYYYAN,GCNNRPS,SSRDSSGFQVF,n.d. / 3.07 / n.d.,2/9 (3.66)

Picked from the list: the 3 lowest averages where every replicate gave a value.

CDR-L1,CDR-L2,CDR-L3,"replicates, log10 nM",control signals
EGDSLRYYQAN,GKNNRPS,SSRDYMGFQVF,1.43 / 1.24 / 0.82,1/9 (3.54)
EADSLRYYGAN,GKNNRPS,SSRSSSGFQVF,2.27 / 1.87 / 1.86,5/9 (3.96)
EGDSVRYYMAS,GKNNRPS,SSRDSSGFQVF,2.19 / 2.12 / 2.47,7/9 (3.99)